We go through 57 molecules from PubChem BioAssay AID504634 (The Scripps Research Institute Molecular Screening Center, 2011).

Amino acid sequences for entries named in this document (tags omitted).
UniProt P47898, whole entry, looked up: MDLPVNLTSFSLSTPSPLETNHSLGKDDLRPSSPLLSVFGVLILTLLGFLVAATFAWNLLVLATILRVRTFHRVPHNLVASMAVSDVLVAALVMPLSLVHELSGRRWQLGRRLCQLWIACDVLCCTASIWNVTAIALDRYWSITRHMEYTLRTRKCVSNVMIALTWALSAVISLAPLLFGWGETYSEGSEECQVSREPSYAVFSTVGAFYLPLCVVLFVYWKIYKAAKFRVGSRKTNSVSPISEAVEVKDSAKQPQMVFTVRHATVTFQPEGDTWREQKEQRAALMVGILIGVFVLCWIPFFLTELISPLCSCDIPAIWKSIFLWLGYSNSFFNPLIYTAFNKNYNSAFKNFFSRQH

This is a selection; strong and weak results do not stand in their true shares. Active and inactive are the calls of the source. Rule as the data show it: active = inhibition mostly above about 23% (no sharp cut-off); inactive = mostly below about 18%.

This assay has as its target 5-hydroxytryptamine receptor 5A (Homo sapiens) (UniProt P47898). Nature of the assay: HTR5A inverse agonists in luminescence cell assay, primary screen, counter-screen for OPRM1-OPRD1 heterodimer inverse agonist project, full-deck HTS (AID 504634).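 Also: 0% = cells with DMSO and 100% = no-cell wells with DMSO.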 The following applies: HTR5A cell line, inverse agonism, at 9.3 µM, stronger effect = higher value.
`N=c1n(CCN2CCOCC2)c2ccccc2n1CC(O)COc1ccccc1` (configuration not stated): the inhibition is inactive: 15.9%.

On to `COc1cccc(C(=O)CSc2nc3ccccc3n2CC(=O)N(C(C)C)C(C)C)c1`, for which the inhibition is inactive: 8.47%. The result for `CC(C)Sc1nc2ccccc2n1CC(=O)NCc1ccc2c(c1)OCO2` reads inactive: -9.11%; that for `Cn1c(=O)n(Cc2ccc(F)cc2)c(=O)c2c1nc1n2CCN1Cc1ccco1`, inactive: 15.9%; that for `CCOC(=O)CNC(=S)N1CCn2c(nc3ccccc32)C1`, inactive: 13.2%. For `Cc1nc2ccccc2n1CC(=O)NCc1ccccc1` the value was inactive: 0.95%; for `CCOC(=O)C1CCN(C(=O)CC2C(=O)N(Cc3ccccc3)C(C)c3nc4ccccc4n32)CC1` (configuration not stated), inactive: 0.53%. The result for `Cn1c(=O)c2c(ncn2CC(=O)N/N=C/C=C/c2ccco2)n(C)c1=O` reads inactive: -5.89%; that for `Cn1c(=O)c2c(ncn2CC(=O)N/N=C/c2cn[nH]c2-c2ccc(F)cc2)n(C)c1=O`, inactive: -2.84%; that for `O=C(Cn1cnc2ccccc21)N/N=C/c1ccc([N+](=O)[O-])cc1`, inactive: -2.57%. Take `O=C(O)COc1ccc([As](=O)(O)O)cc1[N+](=O)[O-]`: the inhibition is inactive: -9.87%. Regarding `Nc1ccccc1[As](=O)(O)c1ccccc1`, the inhibition was inactive: -21.2%.

Turning to `Cc1ccc2c(c1)C1CN(C)CCC1N2C(=O)c1cn(-c2ccccc2)nc1-c1ccccc1` (configuration not stated), the inhibition is inactive: 3.3%. For `Nc1nonc1-c1nc2ccccc2n1CC(=O)N/N=C/c1ccc(-c2cccc(C(=O)O)c2)o1`, the inhibition is inactive: 8.3%. The result for `CCOC(=O)c1ccccc1NC(=O)Cn1cnc2c1c(=O)n(C)c(=O)n2C` reads inactive: 14%; that for `NC(=O)Cn1c(-c2nonc2N)nc2ccccc21`, inactive: -7.83%; that for `COCCN1CCn2c(nc3cc(NC(=O)NC4CCCCC4)ccc32)C1`, inactive: -19.1%.

Turning to `Cc1nc2ccccc2n1CC(=O)N/N=C/c1cccnc1`, the inhibition was inactive: 6.1%. The result for `O=P(Nc1nccs1)(c1ccccc1)c1nc2ccccc2s1` (configuration not stated) reads inactive: -6.96%. The result for `Cn1c(=O)c2c(ncn2CC(=O)N2CCN(S(=O)(=O)c3ccc(Cl)cc3)CC2)n(C)c1=O` reads inactive: 9.91%.

Regarding `CCN(CC)CCn1c(C)nc2ccccc21`, the inhibition is inactive: -13.9%.

With `O=P(Nc1nccs1)(Oc1ccccc1)Oc1ccccc1`, the inhibition was inactive: 13.6%. For `Cc1ccccc1NC(=O)Cn1c(NCC(C)O)nc2ccccc21` (configuration not stated) the value was inactive: -7.76%. As for `CCc1nc2ccccc2n1CC(=O)Nc1cc(C)on1`, the inhibition was inactive: -68.7%.

As to `CC(C)c1ccc(NC(=O)C2CC(=O)Nc3nc4ccccc4n32)cc1` (configuration not stated), the inhibition is inactive: 7.86%. For `O=C(Nc1nc2ccccc2n1CCN1CCOCC1)c1ccc(Cn2cc([N+](=O)[O-])cn2)o1` the value was inactive: -10.4%; for `N#Cc1ccc(NC(=O)Cn2c3[n+](c4ccc(C(F)(F)F)cc42)CCCCC3)cc1`, inactive: -5.24%.

As for `CCC(C)[C@H](NC(=O)N1CCn2c1nc1ccccc12)C(=O)NCCc1ccc(OC)c(OC)c1` (some centres not stated), the inhibition is inactive: -3.61%. For `Cn1c(=O)n(CC(=O)Nc2ccc(F)cc2)c2ccccc21` the value was inactive: -10.8%; for `C/C(=N\NC(=O)Cn1c(-c2ccccn2)nc2ccccc21)c1cccc(O)c1`, inactive: 5.97%. For `CCN1CCC(Nc2ccnc3cc(Cl)ccc23)CC1` the value was inactive: -12.3%. `CN(C(=O)Cn1c(Cl)nc2c1c(=O)n(C)c(=O)n2C)C1CCS(=O)(=O)C1` (configuration not stated): the inhibition is inactive: 9.32%. `CCOP1(=S)c2c(C)nn(CCC#N)c2N=C(c2ccccc2F)N1C` (configuration not stated): the inhibition is inactive: 12.4%. The result for `CS(=O)(=O)c1cc([N+](=O)[O-])c2no[n+]([O-])c2c1` reads inactive: 11.8%; that for `Cc1ccc(/C=N\NC(=O)Cn2c(C)nc3ccccc32)o1`, inactive: 13.6%. On to `Cn1c(=O)c2c(ncn2CC(=O)Nc2ccc3c(c2)OCO3)n(C)c1=O`, for which the inhibition was inactive: -2.75%. The result for `O=C(Cn1cnc2ccccc21)N1CCc2ccccc21` reads inactive: -8.17%; that for `COC(=O)[C@H](CCSC)NC(=O)Cn1cnc2c(SC)nc(N)nc21`, inactive: 25%; that for `O=C1NCN(c2ccccc2)C12CCN(c1nnnn1-c1ccccc1)CC2`, inactive: 2.09%. On to `CN(C)C(=O)Cn1c(SCC(=O)N2CCCc3ccccc32)nc2ccccc21`, for which the inhibition is inactive: 23.8%. The result for `CCN(Cc1ccccc1)C(=O)Cn1cnc2c1c(=O)n(C)c(=O)n2C` reads inactive: 3.51%; that for `CCN(CC)CCn1c(=N)n(CC(O)COc2ccccc2)c2ccccc21` (configuration not stated), inactive: 25%; that for `C[C@H](NC(=O)N1CCn2c1nc1ccccc12)C(=O)NCc1ccc2c(c1)OCO2`, inactive: 9.08%. For `CC(C(O)c1ccccc1)N(C)CCn1cnc2c1c(=O)n(C)c(=O)n2C` (configuration not stated) the value was inactive: -2.12%; for `CN(C(=O)Cc1ccccc1)[C@@H]1CC[C@]2(CCCO2)C[C@H]1N1CCCC1`, inactive: 6.93%. Consider `CCOP1(=S)c2c(C)nn(CCC#N)c2N=C(c2ccc(F)cc2)N1C` (configuration not stated), for which the inhibition was inactive: -6.65%. Turning to `Cn1c(=O)c2c(nc(CN3CCN(c4ccccc4F)CC3)n2CCN2CCOCC2)n(C)c1=O`, the inhibition was inactive: 3.87%.

`Fc1ccc2c(c1)nnn2C1CCN(Cc2c(Cl)cccc2Cl)CC1`: the inhibition was inactive: -4.9%. For `CC(C)[C@H](NC(=O)N1CCn2c1nc1ccccc12)C(=O)NCc1ccco1` the value was inactive: 9.44%.

As to `COc1ccc(CNC(=O)[C@H](CCSC)NC(=O)N2CCn3c2nc2ccccc23)cc1`, the inhibition was inactive: -5.15%. The result for `CCOC(=O)c1ccc(N2C(=O)CC(N3CCC(Nc4ccc(F)cc4)CC3)C2=O)cc1` (configuration not stated) reads inactive: -10.5%. For `O=C(Cn1cnc2ccccc21)N/N=C/c1ccccc1[N+](=O)[O-]` the value was inactive: 9.8%; for `N#CCCN(C(=O)COC(=O)C(O)(c1ccccc1)c1ccccc1)c1ccc(F)cc1`, inactive: 9.79%; for `O=C(CSc1nc2ccccc2n1CC(=O)N1CCCC1)Nc1nccs1`, inactive: 1.02%.

Turning to `O=C(Nc1ccccc1)N1CCn2c1nc1ccccc12`, the inhibition was inactive: 4.92%.

With `CC(C)CN(C(=O)Cn1c(C(F)(F)F)nc2ccccc21)C1CCS(=O)(=O)C1` (configuration not stated), the inhibition is inactive: -4.08%. The result for `CN(C(=O)Cc1ccc(Cl)c(Cl)c1)[C@H]1CC[C@@]2(CCCO2)C[C@@H]1N1CCCC1` reads inactive: -27.9%.
